The values that follow come from PMC11277192 (International Journal of Molecular Sciences, 2024).

Chains of the proteins cited; added tags and fusions are not shown.
UniProt P34972, whole entry: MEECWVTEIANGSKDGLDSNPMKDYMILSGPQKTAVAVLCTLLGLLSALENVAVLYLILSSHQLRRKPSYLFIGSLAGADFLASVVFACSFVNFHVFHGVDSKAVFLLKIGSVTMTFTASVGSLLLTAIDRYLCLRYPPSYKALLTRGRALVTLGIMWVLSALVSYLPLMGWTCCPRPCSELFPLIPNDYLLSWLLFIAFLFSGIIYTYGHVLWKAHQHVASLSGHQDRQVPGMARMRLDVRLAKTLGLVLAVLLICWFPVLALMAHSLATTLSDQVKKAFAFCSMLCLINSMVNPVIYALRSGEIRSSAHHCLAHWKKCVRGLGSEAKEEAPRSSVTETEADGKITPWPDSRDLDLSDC

Structures are written as SMILES.

The assay deals with T1, CB2 receptor (Homo sapiens, UniProt P34972).
T1 construct: host or cells: CHO-K1 (from the C2 catalogue suffix and 'same protocol' as CB1)
In words: CB2 antagonist cAMP assay (HitHunter cAMP XS+), CP55,940 challenge. It counts as cell-based. The conditions noted are these: read-out: CB2 antagonist IC50 (not reached within tested concentrations). The protocol: This observed difference was small but statistically significant (p < 0.0001).
The assay signal was generated through incubation with 20 μL cAMP XS+ ED/CL lysis cocktail for one hour, followed by incubation with 20 μL cAMP XS+ EA reagent for three hours at room temperature.
For the CB1 and CB2 antagonist assays, cells were pre-incubated with antagonists/compounds, followed by an agonist challenge at an ~EC80 concentration. Similar to the agonist assay, before adding the ligands, media were aspirated from cells and replaced with 15 µL 2:1 HBSS/10mM HEPES/cAMP XS+ Ab reagent. […] A total of 5 μL of the solution containing 4× EC80 of (±)-CP 55,940 and 4× EC80 of forskolin was added to the cells (final (±)-CP 55,940 concentration = 1 nM) and incubated at 37 °C for 30 min. The assay signal was generated through incubation with 20 μL cAMP XS+ ED/CL lysis cocktail for one hour, followed by incubation with 20 μL cAMP XS+ EA reagent for three hours at room temperature. A PerkinElmer Envision instrument was used for chemiluminescent signal detection.
More detailed assay protocols are available free of charge on the Eurofins website (Catalog #: 95-0071C2 for CB1 and 95-0183C2 for CB2 [35]).

For the compound `C=C(C)[C@@H]1CCC(C)=C[C@H]1c1c(O)cc(CCCCC)cc1O` [CBD, Cannabidiol], the IC50 is greater than 12 µM.
